Drawing on ChEMBL document CHEMBL4371007, “Biased Ligands of G Protein-Coupled Receptors (GPCRs): Structure-Functional Selectivity Relationships (SFSRs) and Therapeutic Potential” (J Med Chem, 2018), this text covers Emax for three molecules.

The chains behind the UniProt entries cited, without tags or fusion partners.
UniProt P41146, whole entry: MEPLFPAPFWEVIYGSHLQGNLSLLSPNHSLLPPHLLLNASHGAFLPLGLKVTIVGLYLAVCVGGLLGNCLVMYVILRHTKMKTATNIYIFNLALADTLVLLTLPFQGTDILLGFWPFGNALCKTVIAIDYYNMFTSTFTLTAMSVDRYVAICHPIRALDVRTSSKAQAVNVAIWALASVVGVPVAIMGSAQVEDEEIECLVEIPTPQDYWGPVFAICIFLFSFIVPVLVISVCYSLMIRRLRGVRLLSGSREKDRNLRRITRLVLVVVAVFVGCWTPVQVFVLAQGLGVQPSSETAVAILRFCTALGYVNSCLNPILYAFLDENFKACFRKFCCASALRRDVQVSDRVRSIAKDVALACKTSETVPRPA

The structures appear in SMILES notation.

Test [1] addresses Nociceptin receptor (Homo sapiens) (UniProt P41146). The experiment in a line: Agonist activity at YFP-fused human NOPR expressed in HEK293 cells assessed as increase in beta-arrestin-1 recruitment measured for 1 secs every min for 2 mins by BRET assay relative to control.
For test [2] the target is unchanged. The experiment in a line: Agonist activity at YFP-fused human NOPR expressed in HEK293 cells assessed as increase in beta-arrestin-2 recruitment measured for 1 secs every min for 2 mins by BRET assay relative to control.
Test [3] has the same target. The experiment in a line: Agonist activity at YFP-fused human NOPR expressed in HEK293 cells assessed as inhibition of forskolin-mediated cAMP accumulation measured immediately by luminescence assay relative to control.

`CCn1c(=O)n([C@@H]2CCN(CC3CCCC4CCCCC43)C[C@H]2CO)c2ccccc21` (some centres undefined): the Emax amounted to 28% in test [1], 14% in test [2] and 74% in test [3].
Regarding `CCn1c(=O)n([C@@H]2CCN(C3CCC(C(C)C)CC3)C[C@H]2CO)c2ccccc21` (some centres undefined), the Emax in test [1] was 31%; in test [2] it was 24%; in test [3] it was 77%.
Regarding `CCn1c(=O)n([C@@H]2CCN(CC3CCCCCCC3)C[C@H]2CO)c2ccccc21`, the values for the Emax in test [1], in test [2] and in test [3] were 19%, 5.1% and -10%, respectively.
